# In patent publication US9879008B2, “2,3,4,6-tetra-substituted benzene-1,5-diamine derivatives, preparation method therefor and medicinal use thereof” (SHANGHAI HAIYAN PHARMACEUTICAL TECHNOLOGY CO., LTD., priority 2014, dated 2018):
# Amino acid sequences for entries named in this document (tags omitted). Residues count along the entry.
# UniProt P00533, 25-1210 limits assumed: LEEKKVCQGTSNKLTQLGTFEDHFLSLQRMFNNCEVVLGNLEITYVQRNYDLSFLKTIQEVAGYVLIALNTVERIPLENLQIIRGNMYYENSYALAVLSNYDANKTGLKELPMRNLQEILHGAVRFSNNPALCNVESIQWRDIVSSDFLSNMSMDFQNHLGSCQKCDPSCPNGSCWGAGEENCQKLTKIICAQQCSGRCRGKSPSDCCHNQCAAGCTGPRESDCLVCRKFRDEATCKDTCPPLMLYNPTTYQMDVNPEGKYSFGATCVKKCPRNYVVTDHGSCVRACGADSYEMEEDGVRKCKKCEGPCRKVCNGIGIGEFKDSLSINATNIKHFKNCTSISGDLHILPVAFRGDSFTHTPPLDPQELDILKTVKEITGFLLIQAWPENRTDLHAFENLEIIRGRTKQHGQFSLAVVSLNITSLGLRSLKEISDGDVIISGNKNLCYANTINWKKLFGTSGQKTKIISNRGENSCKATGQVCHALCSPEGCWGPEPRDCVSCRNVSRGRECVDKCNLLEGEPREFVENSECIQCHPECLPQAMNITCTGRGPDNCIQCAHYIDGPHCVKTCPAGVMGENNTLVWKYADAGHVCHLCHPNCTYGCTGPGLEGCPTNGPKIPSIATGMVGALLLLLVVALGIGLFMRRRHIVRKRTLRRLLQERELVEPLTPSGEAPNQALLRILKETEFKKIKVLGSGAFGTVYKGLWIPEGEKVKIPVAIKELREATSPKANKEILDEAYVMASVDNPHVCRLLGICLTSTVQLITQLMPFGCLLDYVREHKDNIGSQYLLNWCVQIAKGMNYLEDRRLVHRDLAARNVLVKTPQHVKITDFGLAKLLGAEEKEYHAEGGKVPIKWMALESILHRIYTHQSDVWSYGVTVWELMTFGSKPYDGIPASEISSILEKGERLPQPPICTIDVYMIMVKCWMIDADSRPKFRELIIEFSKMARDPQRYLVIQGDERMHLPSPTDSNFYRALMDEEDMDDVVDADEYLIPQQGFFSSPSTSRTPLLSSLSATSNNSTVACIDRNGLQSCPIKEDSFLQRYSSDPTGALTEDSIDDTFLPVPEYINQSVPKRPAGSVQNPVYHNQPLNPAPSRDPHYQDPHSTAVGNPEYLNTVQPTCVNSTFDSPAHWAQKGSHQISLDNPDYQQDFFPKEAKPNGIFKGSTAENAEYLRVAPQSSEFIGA
# Read-outs that look alike come from different tables or passages of the source.
# Assays:
# wild-type EGFR kinase = wild-type EGFR kinase (Homo sapiens, UniProt P00533); test: z-lyte inhibition test against wild-type EGFR kinase; type: biochemical; conditions: read-out: EGFR WT (IC50/nM), 10 μM ATP;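 further: reaction volume 10 µL holding 0.8 ng/µL enzyme and 2 µM Tyr04 substrate, with DMSO at 2% once compounds are present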
# A431 cell = test: MTT cytostatic activity, A431 cell; type: cell-based
# NIH3T3 cell = test: MTT cytotoxicity against NIH3T3 cells
# A431 cells = test: ELISA assay for cell activity, EGF-treated A431 cells; type: cell-based;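 further: Serum-starved A431 cells, ELISA on lysates read as OD450 minus OD570, inhibition scaled between EGF-stimulated wells (0%) and unstimulated cell control (100%), DMSO 0.5% final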
# [1] = Pharmacokinetics in vivo in rats (LC/MS/MS plasma concentration); set-up: species or system SD rats; conditions: rat; intravenous 1 mg/kg, intragastric 20 mg/kg (route per parameter not given); tested form: formate
# [2] = Pharmacokinetics in vivo in mice (LC/MS/MS plasma concentration); set-up: species or system CD1 mice; conditions: intravenous 1 mg/kg, intragastric 5 mg/kg (route per parameter not given), tested form: formate
IC50 (wild-type EGFR kinase) [nM],"IC50 (A431 cell; read-out: A431 cell (IC50/nM), 72 h) [nM]","IC50 (A431 cells; read-out: A431 cell (IC50/nM), compound 1 h, then EGF 45 min) [nM]",Structure (SMILES),"IC50 (NIH3T3 cell; read-out: MTT assay against NIH3T3 cell (IC50/nM), 72 h) [nM]","IC50 (A431 cell; read-out: A431 cell (IC50/nM), 72 h, tested form: formate) [nM]","IC50 (NIH3T3 cell; read-out: MTT assay against NIH3T3 cell (IC50/nM), 72 h, tested form: formate) [nM]","IC50 (A431 cells; read-out: A431 cell (IC50/nM), compound 1 h, then EGF 45 min, tested form: formate) [nM]",Area under the curve AUC [1] [ng·h/mL],Clearance CL [1] [mL/min/kg],Half-life T1/2 [1] [h],Area under the curve AUC [2] [ng·h/mL],Clearance CL [2] [mL/min/kg],Half-life T1/2 [2] [h]
176,3950,1470,C=CC(=O)Nc1cc(Nc2ncc(Cl)c(SC3CN(C(C)=O)C3)n2)c(OC)cc1N1CCC(N(C)C)CC1,9040,,,,,,,,,
,,,C=CC(=O)Nc1cc(Nc2ncc(Cl)c(OC3CN(S(C)(=O)=O)C3)n2)c(OC)cc1N1CCC(N(C)C)CC1,,814,> 10000,715,2619,56.5,3.84,605,57.9,3.82
